{"source": "ChEMBL document CHEMBL3779880", "about": "“In silico to in vitro screening of hydroxypyridinones as acetylcholinesterase inhibitors” (Bioorg Med Chem Lett, 2016)", "biological_target": "Acetylcholinesterase (Electrophorus electricus, UniProt O42275)", "assay": "Inhibition of electric eel AChE preincubated for 5 mins followed by addition of acetylthiocholine iodide measured after 2 mins by Ellman's method", "data": [{"compound": "Cc1c(OC(=O)N(C)C)c(=O)ccn1-c1ccccc1", "values": [{"measurement": "IC50", "result": 48.8, "unit": "µM"}]}]}
